Data on 1 compound can be found in ChEMBL document CHEMBL4007427, “Inhibition of the Aldehyde Dehydrogenase 1/2 Family by Psoralen and Coumarin Derivatives” (J Med Chem, 2017).

This assay has as its target T1, Aldehyde dehydrogenase, mitochondrial (Homo sapiens, UniProt P05091).
T1 sequence (P05091 whole entry): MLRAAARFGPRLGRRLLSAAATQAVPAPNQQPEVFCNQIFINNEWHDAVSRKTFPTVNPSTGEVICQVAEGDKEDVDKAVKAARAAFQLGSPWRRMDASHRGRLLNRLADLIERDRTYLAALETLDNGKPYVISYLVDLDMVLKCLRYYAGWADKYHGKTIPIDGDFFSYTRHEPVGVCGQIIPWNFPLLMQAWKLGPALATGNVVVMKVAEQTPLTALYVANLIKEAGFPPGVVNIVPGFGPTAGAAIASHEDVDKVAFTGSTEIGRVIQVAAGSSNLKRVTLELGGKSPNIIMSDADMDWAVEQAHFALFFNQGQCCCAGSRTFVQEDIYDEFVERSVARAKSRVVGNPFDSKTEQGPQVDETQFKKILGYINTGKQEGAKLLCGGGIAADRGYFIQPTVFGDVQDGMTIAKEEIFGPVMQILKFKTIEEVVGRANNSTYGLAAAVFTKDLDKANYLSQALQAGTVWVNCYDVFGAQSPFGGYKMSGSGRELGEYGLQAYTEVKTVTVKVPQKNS

Consider `Cc1oc2cc3oc(=O)c(C)c(C)c3cc2c1C`, for which the IC50 worked out at 190 nM.

For orientation: IC50 means the concentration at which inhibition is half-maximal.
